What was measured:
mTOR kinase [1] = target: T1, mTOR kinase (Homo sapiens, UniProt P42345); experiment: SPIDR mapping of RBP-RNA binding in torin-treated versus control cells; format: cell-based; details: HEK293T cells, 250 nM torin, 18 hours, vs solvent-only control
T1 construct: endogenous in cells; host or cells: HEK293T (ATCC, CRL-3216)
Procedure: To explore the mechanism of translational suppression of TOP-containing mRNAs upon mTOR inhibition, HEK293T cells were treated with torin, a drug that inhibits mTOR kinase. SPIDR was adapted to map multiple independent samples within a single split- and -pool barcoding experiment (FIG. 6A, FIG. 15; see Materials and Methods, below, for details) and used this approach to perform SPIDR on >50 distinct RBPs, including LARP1, numerous translational initiation factors, and 4 negative controls in both torin-treated and untreated conditions.
Torin-1 treatment HEK293T cells were treated at a final concentration of 250 nM Torin-1 (Cell Signaling Technology, #14379) in standard HEK293T media for 18 hours prior to UV-crosslinking and harvesting.
Compared to previously published approaches, the number of barcodes per round was reduced, but the rounds of split and pool barcoding was increased. […] For example, for the K562 cells pooled experiment, 6 rounds of 24 barcodes were used for combinatorial barcoding (with a scheme of Odd, Even, Odd, Even, Odd, Terminal tag). For the HEK293T cells mTOR inhibition experiment, 6 rounds of 36 barcodes were used for combinatorial barcoding to achieve sufficient barcode complexity. Of the 36 barcodes used in round one of the ligations, 18 were used to label the control condition and the remaining 18 were used to label the torin treated condition. The samples were then pooled together for the remaining 5 rounds of ligation.
Background corrected bedgraphs were generated from control and +Torin conditions for each RBP in each condition. […] To normalize for possible detection bias due to fewer antibody beads in one condition versus the other we adjusted the map value by the ratio of antibody beads as determined by number of bead clusters corresponding to each antibody in each respective condition. Number of antibody (bead clusters) were defined and calculated using the same values used to generate the split bam files for each protein (options: minimum number of oligos=3, fraction unique=0.8, max number of RNAs in clusters=100). […]

mTOR kinase [2] = target: T1, mTOR kinase; experiment: Quantitative mass spectrometry of global protein levels in torin-treated versus untreated cells; format: cell-based; details: HEK293T cells, 250 nM Torin-1, LC-MS/MS, vs control
From the text: To ensure that mTOR inhibition robustly leads to translational suppression of TOP-containing mRNAs, global protein levels in torin-treated and untreated cells were quantified using quantitative mass spectrometry (see Materials and Methods, below, for details) to determine protein level changes globally. […] Indeed, this translational suppression was directly proportional to the strength of the TOP-motif contained within the 5′-UTR of each mRNA (FIG. 6B).
For the protein changes CDF plots, we first selected for the 2000 highest expressed genes based on previous RNA-seq data84. […] The input samples were down sampled to 20M reads prior to TPM calculation. Feature counts was used to calculate read overlaps with hg38 protein coding refseq genes and further converted to TPM values. […]
5 million cells each of control and 250 nM Torin-1 treated HEK cells were lysed in 250 μL Mass Spec Lysis Buffer (8M urea, 75 mM NaCl, 50 mM Tris pH 8.0, 1 mM EDTA) for 30 min at room temperature. Samples were then clarified by centrifugation at 23000 g for 5 minutes, and the protein content in the supernatant was measured by BCA assay (ThermoFisher, #PI23227). […]
The Torin treated and control total lysate samples were measured in a Data Independent Acquisition (DIA) mode. MS1 Spectra were measured with a resolution of 120,000, an AGC target of 5e6 and a mass range from 350 to 1650 m/z. […]

For `CCC(=O)N1CCN(c2ccc(-n3c(=O)ccc4cnc5ccc(-c6cnc7ccccc7c6)cc5c43)cc2C(F)(F)F)CC1` [torin, Torin-1], the “change in number of RNA reads purified by LARP1 upon mTOR inhibition” value (mTOR kinase [1]) was “no global change”, the “increase in overall number of RNA reads for 4EBP1 upon torin treatment relative to control” value (mTOR kinase [1]) was over 20 fold and the “increase in levels of binding of LARP1 at TOP mRNAs upon mTOR inhibition” value (mTOR kinase [1]; p-value <5.4×10-16, Mann-Whitney) was 1.7 fold. For the same molecule, the “level of proteins encoded from TOP motif-containing mRNAs upon torin-treatment” value (mTOR kinase [2]) was “striking reduction”.

— patent US20240384325A1, “SPLIT AND POOL IDENTIFICATION OF RBP TARGETS (SPIDR)” (California Institute of Technology, priority 2023, published 2024)
